Assay results taken from US20220133842A1 (priority 2019, published 2022).

Assay: Lipid monolayer (Langmuir balance) insertion
Parameters: species or system Clostridium perfringens

CTAB
insertion into lipid monolayer (initial surface pressure of 30 mN/m, 5 times MIC): can therefore be inserted
critical insertion pressure Pc (injected at 5 times their MIC): 46.8 mN/m
